System: P388
Experiment: In vivo antitumor activity against mouse P388 cells in 3PS31 test system at 100 mg/kg administered on day 1, 5 and 9 relative to control

Structure (SMILES): O=C(CCCSCCCl)Nc1ccc(P(=O)(O)O)cc1
- T/C: 105%
